How the values were obtained:
[1] = biological target: T1, human sphingosine-1-phosphate receptor 1 (S1P1) (Homo sapiens, UniProt P21453); assay: Inhibition of cAMP production (HTRF cAMP HiRange), S1P1 CHO-K1 cells; settings: for hS1P1 CAMP SPAN: efficacy normalized to maximum efficacy of fingolimod
[2] = biological target: T1, human sphingosine-1-phosphate receptor 1 (S1P1); assay: β-Arrestin2 recruitment assay (PathHunter), S1P1 CHO-K1 cells; settings: for hS1P1 B-arrestin2 SPAN: efficacy normalized to maximum efficacy of fingolimod

Protein sequences, listed by entry. Tags and fused reporters are not part of them.
UniProt P21453, whole entry: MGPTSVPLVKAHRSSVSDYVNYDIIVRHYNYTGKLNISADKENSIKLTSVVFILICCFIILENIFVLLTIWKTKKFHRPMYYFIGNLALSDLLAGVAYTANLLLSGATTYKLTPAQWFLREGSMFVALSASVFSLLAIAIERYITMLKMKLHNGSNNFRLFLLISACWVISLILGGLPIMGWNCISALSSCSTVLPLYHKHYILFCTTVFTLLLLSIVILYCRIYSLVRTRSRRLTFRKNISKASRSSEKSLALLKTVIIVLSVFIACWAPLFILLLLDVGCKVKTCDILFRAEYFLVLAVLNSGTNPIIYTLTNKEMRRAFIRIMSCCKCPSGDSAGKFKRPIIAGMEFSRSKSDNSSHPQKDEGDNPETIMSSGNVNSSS
UniProt P32121, whole entry partner: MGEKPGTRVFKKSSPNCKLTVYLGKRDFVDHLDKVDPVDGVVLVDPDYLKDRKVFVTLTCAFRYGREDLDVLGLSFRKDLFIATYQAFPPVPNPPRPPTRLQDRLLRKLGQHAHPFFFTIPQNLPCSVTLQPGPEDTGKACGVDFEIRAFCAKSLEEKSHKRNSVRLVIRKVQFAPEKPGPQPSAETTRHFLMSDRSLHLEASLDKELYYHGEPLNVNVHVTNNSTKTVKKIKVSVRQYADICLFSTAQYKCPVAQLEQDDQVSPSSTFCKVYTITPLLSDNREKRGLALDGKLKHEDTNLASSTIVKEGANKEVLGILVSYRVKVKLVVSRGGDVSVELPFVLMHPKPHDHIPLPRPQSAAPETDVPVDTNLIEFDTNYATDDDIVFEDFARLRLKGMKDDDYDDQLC

CC(C)n1ccc2cc(-c3nc(-c4ccccc4C(F)(F)F)cs3)ccc21
hS1P1 CAMP SPAN [1]: >75
hS1P1 CAMP pEC50 ([1]; inhibition of cAMP production, S1P1): <6.5
hS1P1 B-arrestin2 SPAN [2]: <75
hS1P1 B-arrestin2 pEC50 ([2]; β-arrestin2 recruitment, S1P1): <5

CC(C)n1nnc2cc(-c3ncc(-c4ccccc4C(F)(F)F)s3)ccc21
hS1P1 CAMP SPAN ([1]; inhibition of cAMP production): <75
hS1P1 CAMP pEC50 ([1]; inhibition of cAMP production, potency): <6.5
hS1P1 B-arrestin2 SPAN ([2]; β-arrestin2 recruitment): <75
hS1P1 B-arrestin2 pEC50 ([2]; β-arrestin2 recruitment, potency): <5

Source: patent US20230114241A1, “METHODS OF TREATING EPILEPSY USING THE SAME” (Trevena, Inc., priority 2019, published 2023)
